Legend:
[1] = system: C57BL/6 mice exposed to Cl2 gas; experiment: Cl2-induced acute lung injury, intramuscular AMD3100
[2] = system: C57BL/6 mice exposed to Cl2 gas; experiment: Cl2-induced chronic lung injury (14 days), intramuscular AMD3100; conditions: AMD3100 0.05 mg/kg IM 1 hour post Cl2 (500 ppm, 30 min)
[3] = AMD3100 0.05 mg/kg IM 1 hour post Cl2 (500 ppm, 30 min), 1 day post exposure, vs Cl2+saline
[4] = AMD3100 0.05 mg/kg IM 1 hour post Cl2 (500 ppm, 30 min), vs Cl2+saline

For c1cc(CN2CCCNCCNCCCNCC2)ccc1CN1CCCNCCNCCCNCC1, the “plasma IL-6” value [1, 3] was “reduced”, the “plasma TNF-α” value [1, 3] was “reduced” and the “neutrophil elastase activity in BALF” value [1, 4] was “reduced”. The “neutrophil elastase activity in plasma” value [1, 4] was “reduced”, the “lung injury and mortality (anticipated)” value ([1]; anticipated, AMD3100 intramuscularly and intranasally in Cl2 exposed mice) was “improve lung injury and mortality” and the “mean difference in BALF protein levels, Cl2+saline vs. Cl2+AMD3100” value ([1]; preliminary experiments (FIG. 5A), pooled standard deviation 0.202409) was 0.2627. The “chronic inflammatory sequelae in lungs (fibrotic and emphysematous changes)” value [2] was “prevented” and the “peribronchial collagen deposition (trichrome staining)” value ([2]; 14 days post exposure, vs Cl2+saline) was “attenuated”.
